# Assay results published in patent US8465973B2, “Topical compositions containing phosphorylated polyphenols” (Estee Lauder Coordination Center N.V., priority 2004, dated 2013).
# System: extractable fraction of human SC D-squame tape strippings (acid phosphatase present on the skin)
# Assay: Dephosphorylation of resveratrol^Pi by extractable fraction of stratum corneum D-squame tape strippings
# Conditions: resveratrol^Pi 0.22 mg/ml or 0.47 mM, FIG. 3
# Description: D-squame tape strippings were collected on the inner lower arm of one panelist. […] The extractable fraction was transferred to another vial and mixed with resveratrol^Pi stock-solution. The concentration of resveratrol^Pi during the incubation was 0.22 mg/ml or 0.47 mM. At various incubation time points a 25 μl aliquot of the incubation mixture was diluted in 25 μl 10 mM o-phosphoric acid and 50 μl of MeOH and injected onto the HPLC system.
substance,measurement,setting,value
resveratrol diphosphate,correlation (r) of amount with incubation time,N=15,−0.27
same,conversion on incubation with extractable fraction of SC D-squame tape strippings (HPLC),pH 5.6,did not change significantly as a function of time
